Literature values, collected in patent US20160030582A1, “ITRACONAZOLE COMPOSITIONS AND DOSAGE FORMS, AND METHODS OF USING THE SAME” (MAYNE PHARMA INTERNATIONAL PTY. LTD., priority 2012, published 2016).

Conditions: in vivo

## CC(O)C(C)n1ncn(-c2ccc(N3CCN(c4ccc(OCC5COC(Cn6cncn6)(c6ccc(Cl)cc6Cl)O5)cc4)CC3)cc2)c1=O (centres unmarked) [hydroxyitraconazole]
  expected apparent plasma terminal elimination half-life (t½): 7 h
200 mg
  elimination half life: 11.5 h
